Measurements reported in patent US20230407373A1 (priority 2020, published 2023).
Read-outs that look alike come from different tables or passages of the source.

Tested on: HCoV-OC43 gRNA and sgRNA
Type: binding
Conditions: for target (unweighted spectral count): OC43 Probe II, infected cells

Substance | target (unweighted spectral count, OC43 Probe II capture) (36 hpi, type n_36_v, tested against no-probe control, FDR<10%) | target (unweighted spectral count, OC43 Probe II) (type n_48_v, 48 hpi, OC43 Probe II capture on infected cells) | background (unweighted spectral count, no-probe control) (type n_48_v, 48 hpi, no-probe control on infected cells) | target (unweighted spectral count) (12 hpi (type n_12_v), tested against no-probe control) | target (unweighted spectral count) (24 hpi (type n_24_v), tested against no-probe control)
PRRC2C | 6 | 5 | 1 |  | 
RPA1 |  |  |  | 12 | 5
